From article doi:10.1101/2021.04.08.439011v1 (biorxiv, 2021)

The chains behind the UniProt entries cited, without tags or fusion partners. Residues count along the entry.
UniProt Q9Y6E0, 4-301: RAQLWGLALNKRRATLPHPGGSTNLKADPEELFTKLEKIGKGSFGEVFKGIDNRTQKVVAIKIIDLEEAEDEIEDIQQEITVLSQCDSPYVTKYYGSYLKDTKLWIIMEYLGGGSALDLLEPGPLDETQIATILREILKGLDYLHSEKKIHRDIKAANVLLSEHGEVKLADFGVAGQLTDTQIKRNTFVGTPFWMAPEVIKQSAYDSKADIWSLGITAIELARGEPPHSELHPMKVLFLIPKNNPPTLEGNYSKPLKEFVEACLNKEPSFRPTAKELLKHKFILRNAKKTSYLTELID
UniProt Q9P289, 1-300: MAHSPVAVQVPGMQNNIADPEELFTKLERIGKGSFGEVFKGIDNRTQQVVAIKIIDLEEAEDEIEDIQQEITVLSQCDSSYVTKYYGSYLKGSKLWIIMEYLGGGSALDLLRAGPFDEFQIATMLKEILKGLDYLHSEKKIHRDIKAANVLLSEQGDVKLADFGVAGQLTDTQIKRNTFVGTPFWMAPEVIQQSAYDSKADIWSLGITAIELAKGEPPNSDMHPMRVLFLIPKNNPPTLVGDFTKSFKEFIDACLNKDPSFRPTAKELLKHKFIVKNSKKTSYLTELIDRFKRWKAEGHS

Key:
MST3 = MST3 (Homo sapiens, UniProt Q9Y6E0); settings: binder
MST4 = MST4 (Homo sapiens, UniProt Q9P289); settings: binder

**Q.** How did the “ΔTm [°C] MST3” value (MST3) turn out when `CN[C@@H]1C[C@H]2O[C@@](C)([C@@H]1OC)n1c3ccccc3c3c4c(c5c6ccccc6n2c5c31)C(=O)NC4` [Staurosporine] was run?
**A.** 8.8 ± 0.2 °C

**Q.** And the “ΔTm [°C] MST4” value (MST4)?
**A.** 7.1 ± 0.5 °C
